# Source: patent publication US7708998B2, “Methods of inhibiting unwanted cell proliferation using hedgehog antagonists” (Curis, Inc., priority 2000, dated 2010)
# System: Shh signaling pathway in MEFs homozygous for ptc-lacZ
# Experiment: β-galactosidase activity in ptc-lacZ mouse embryonic fibroblasts
# Assay type: cell-based
# Conditions: MEFs homozygous for ptc-lacZ (cell line 23-1), normalized to whole protein content
smiles,measurement,value
CC1=C2C[C@H]3[C@@H](CC=C4C[C@@H](O)CC[C@@]43C)[C@@H]2CC[C@]12O[C@@H]1C[C@H](C)CN[C@H]1[C@H]2C [cyclopamine],β-galactosidase activity,decreased
